In experiment [1] the test system is NCI-N87 cells. The experiment can be described thus: Binding to NCI-N87 tumor cells by FACS. On the set-up: species or system human. As for the experimental part: The specific steps of the assay: • (1) Drugs were prepared with 1% BSA/PBS. The highest concentration prepared was 120 μg/mL (the working concentration was 60 μg/mL) and was 3-fold diluted to obtain a total of 10 concentrations. • (2) NCI-N87 cells (purchased from Chinese Academy of Sciences, Shanghai) were collected, centrifuged, counted, blocked with 5% BSA/PBS for 15 min, and added to 1.5-mL centrifuge tubes at 2×10^5 cells/50 μL/tube. 50 μL of antibody drug was added to each of the tubes, and the tubes were left at 4° C. for 1 h. • (3) Cells were washed twice by centrifugation at 2000 rpm for 5 min. In each wash, 1000 μL of 1% BSA/PBS was added. After the last wash, the liquid was pipetted off, and 90 μL of APC-IgG diluted in 1% BSA/PBS at 1:100 was added to each well. The tubes were left in the dark at 4° C. for 30 min. • (4) Cells were washed twice by centrifugation at 2000 rpm for 5 min. In each wash, 1000 μL of 1% BSA/PBS was added. After the last wash, the liquid was pipetted off; 300 μL of 1% BSA/PBS was added to each of the tubes, and FACS assays were performed in the dark.
In general terms: In flow cytometry, cells or beads pass a laser one at a time.

For a further experiment, the system named is BT474 cells. Nature of the experiment: BT474 tumor cell killing assay (CCK-8). The conditions noted are these: 3 days of treatment. The experiment is classed as cell-based. Here is the method: (§1) The plate was gently tapped to mix the contents well and left at 37° C. for around 2 h. • (6) With 650 nm as a reference wavelength, the absorbance values at 450 nm were recorded.

For experiment [2], the system named is MDA-MB-468 cells in SK-BR-3+MDA-MB-468 (1:1) mixed system. The experiment can be described thus: Bystander killing experiment, MDA-MB-468 cells in the mixed system. The experiment is classed as cell-based. The conditions noted are these: 72 h.
The subject of experiment [3] is human HER2 weakly positive (2+) gastric cancer PDX. The experiment can be described thus: HER2 weakly positive (2+) gastric cancer PDX subcutaneous xenograft model (case 168). Conditions: Day 27, 10 mg/kg. The experiment is classed as in vivo, NOD/SCID mice.
Experiment [4] relates to NCI-N87 cells. The experiment can be described thus: NCI-N87 tumor cell killing assay (CCK-8). The conditions noted are these: 3 days of treatment. Format: cell-based, human. Here is the method: as §1
For experiment [5], the system named is MDA-MB-468 (no HER2 expression) single cell system. The experiment can be described thus: Bystander killing experiment, MDA-MB-468 single cell system. The experiment is classed as cell-based. The conditions noted are these: 72 h. Here is the method:
(§2) After 3 days of treatment, the cells in all sample wells were counted, the mixed cell system was stained with the APC anti-CD340 Antibody fluorescent antibody, and flow cytometry assays were performed. In T75 culture flasks, SK-BR-3 and MDA-MB-468 cells were in the logarithmic growth phase. The media were discarded. After two washes with PBS, the liquid was pipetted off; 2 mL of trypsin was added for digestion, and the flasks were left in a 37° C. incubator for 4 min. The cell digests were transferred to 15-mL centrifuge tubes, and 8 mL of growth medium was added to stop the digestion. The cells were pipetted until single-cell suspensions were formed, and the suspensions were centrifuged at 1000 rpm for 5 min. The supernatants were discarded, and 3 mL of medium (RPMI-1640+1% FBS) was added to resuspend the cells. 20 μL of cell suspension was taken and mixed with 20 μL of 0.2% trypan blue. Count: Mono-culture: The densities of the two types of cells were adjusted to 1×10^5 cells/mL using a medium (RPMI-1640+1% FBS); each of the two types of cells was plated onto a 96-well plate at 100 μL/well, with each well containing 1×10^4 cells; the plates were incubated overnight in a 37° C., 5% CO2 incubator. Co-culture: The densities of the two types of cells were adjusted to 2×10^5 cells/mL using a medium (RPMI-1640+1% FBS); to each well were added 50 μL of SK-BR-3 cells and 50 μL of MDA-MB-468 cells; each well contained a total of 2×10^4 cells; the plate was incubated overnight in a 37° C., 5% CO2 incubator. Antibody drug preparation: The test samples were 5-fold diluted with an RPMI-1640 medium containing 1% FBS from the highest working concentration of 50 nM to obtain a total of 4 concentrations. A control group was set up at the same time, i.e., a drug-free group (negative control). The diluted test samples were added at 100 μL/well, and 100 μL of RPMI-1640+1% FBS medium was directly added to the negative control. The plate was incubated at 37° C. with 5% CO2 for 72 h. The supernatants in the 96-well plate were pipetted off. After one wash with 200 μL of 1×PBS, 20 μL of trypsin was added to each well for digestion, and the plate was left in a 37° C. incubator for 4 min. 100 μL of medium (RPMI-1640+10% FBS) was added to stop the digestion. The cells were pipetted until single-cell suspensions were formed, and the plate was centrifuged at 1000 rpm for 5 min. The supernatants were discarded, and 40 μL of 1×PBS was added to each well to resuspend cells. 20 μL of cell suspension was taken and mixed with 20 μL of 0.2% trypan blue, and cells were counted. […]

For experiment [6], the system named is SK-BR-3 (high HER2 expression) single cell system. Nature of the experiment: Bystander killing experiment, SK-BR-3 single cell system. The experiment is classed as cell-based. Conditions: 72 h. As for the experimental part: as §2
Experiment [7] has as its system SK-BR-3+MDA-MB-468 (1:1) mixed cell system. Nature of the experiment: Bystander killing experiment, mixed cell system, total cell count. The experiment is classed as cell-based. The conditions noted are these: 72 h. As for the experimental part: as §2
The test system of the next experiment is BxPC-3 tumor model. Nature of the experiment: Tumor growth inhibition in BxPC-3 nude mouse model. The experiment is classed as in vivo, nude mice. The conditions noted are these: 10 mg/kg, intraperitoneal, 24 days. Here is the method: Group administration regimen: BxPC-3 cells were injected subcutaneously into the axilla of nude mice to establish a model, wherein the concentration for inoculation was 1×10^6/0.1 mL/mouse.
When the average tumor size reached about 190 mm^3, the mice were randomly divided into groups of 4 (male) by tumor size and body weight. The day when random grouping was performed was taken as day 0. The test drugs were administered intraperitoneally on day 0, and administered intraperitoneally at the dose once every 3 days in the following days. A total of 2 administrations were performed. The animals not selected were euthanized with CO2.
The test animals were divided into groups A, B and C.
According to the above regimen, the test mice of groups A, B and C were put on three test substances for 24 days (2 animals from group A (PBS) were euthanized after 20 days of test substance administration because the tumors grew too big). Tumor inhibition curves of the three test substances against the BxPC-3 tumor model were obtained.

Experiment [8] has as its system HER2 expression negative human gastric cancer PDX tumor. Nature of the experiment: HER2 negative gastric cancer PDX subcutaneous xenograft model (case 111). Format: in vivo, NOD/SCID mice.
The mark [9] stands for this setting: FACS mean fluorescence intensity (MFI) binding curve.

For orientation: EC50 means the midpoint of the concentration-response curve. A higher EC50 goes with weaker potency. In the experiment with NCI-N87 cells [1] (FACS binding, 4° C., 1 h), Antibody A-ADC2 yielded a 50% effective concentration (EC50) of 0.9369 µg/mL. In the experiment on NCI-N87 cells [1] (setting [9]), this substance had a Peak value of 30780 and a Valley value of 660.8. The “inhibition rate against BT474 cells” value in the experiment with BT474 cells amounted to 36%.

On to DS-8201 [reference compound], for which the “proportion of HER2 negative (MDA-MB-468) cells in the mixed cell group” value in [2] (0.4 nM) came to 55.33%; in experiment [2] (2 nM), 64.00%; in [2] (10 nM), 56.20%; in [2] (50 nM) it was 57.85%. In addition, the “T/C (%)” value is given as 13.92% in [3] and 24.81% in [8] (Day 17, 10 mg/kg). For the same substance, the “TGI (%)” value in experiment [3] is recorded as 86.08%; in experiment [8] (Day 17, 10 mg/kg) it was 75.19%. The “inhibition rate against NCI-N87” value with NCI-N87 cells [4] was 60%. Besides, the CountStar cell count in experiment [5] (0.4 nM) amounted to 10320; in experiment [5] (2 nM), 10800; in experiment [5] (10 nM) it was 11480; in experiment [5] (50 nM) it was 8800; in [6] (0.4 nM), 5120; in experiment [6] (2 nM), 3572. In addition, the CountStar cell count in experiment [6] (10 nM) was 2808; in [6] (50 nM), 2012; in experiment [7] (0.4 nM), 27860; in experiment [7] (2 nM) it was 23680; in experiment [7] (10 nM), 16760; in experiment [7] (50 nM), 12000. The “tumor inhibition (tumor inhibition curves)” value with BxPC-3 tumor model is given as “tumor inhibition to a great extent”. In addition, the “inhibition rate against BT474 cells” value with BT474 cells stood at 23%. Further, the “Tumor volume (mm^3) (x ± S)” value in experiment [8] (Day 17 after the first administration, 10 mg/kg once, tail vein, listed as ENHERTU, 10 mg/kg) is on record as 174.06±71.09 mm^3.

For the origin of these results see patent US20240307551A1, “ANTIBODY-DRUG CONJUGATE AND APPLICATION THEREOF” (JIANGSU ALPHAMAB BIOPHARMACEUTICALS CO., LTD., priority 2021, published 2024).
